The values below come from patent US20110144137A1, “METHOD FOR PREVENTING OR ALLEVIATING THE NOXIOUS EFFECTS RESULTING FROM TOXICANT EXPOSURE” (published 2011).

The chains behind the UniProt entries cited, without tags or fusion partners.
UniProt Q8BLA8, whole entry, looked up: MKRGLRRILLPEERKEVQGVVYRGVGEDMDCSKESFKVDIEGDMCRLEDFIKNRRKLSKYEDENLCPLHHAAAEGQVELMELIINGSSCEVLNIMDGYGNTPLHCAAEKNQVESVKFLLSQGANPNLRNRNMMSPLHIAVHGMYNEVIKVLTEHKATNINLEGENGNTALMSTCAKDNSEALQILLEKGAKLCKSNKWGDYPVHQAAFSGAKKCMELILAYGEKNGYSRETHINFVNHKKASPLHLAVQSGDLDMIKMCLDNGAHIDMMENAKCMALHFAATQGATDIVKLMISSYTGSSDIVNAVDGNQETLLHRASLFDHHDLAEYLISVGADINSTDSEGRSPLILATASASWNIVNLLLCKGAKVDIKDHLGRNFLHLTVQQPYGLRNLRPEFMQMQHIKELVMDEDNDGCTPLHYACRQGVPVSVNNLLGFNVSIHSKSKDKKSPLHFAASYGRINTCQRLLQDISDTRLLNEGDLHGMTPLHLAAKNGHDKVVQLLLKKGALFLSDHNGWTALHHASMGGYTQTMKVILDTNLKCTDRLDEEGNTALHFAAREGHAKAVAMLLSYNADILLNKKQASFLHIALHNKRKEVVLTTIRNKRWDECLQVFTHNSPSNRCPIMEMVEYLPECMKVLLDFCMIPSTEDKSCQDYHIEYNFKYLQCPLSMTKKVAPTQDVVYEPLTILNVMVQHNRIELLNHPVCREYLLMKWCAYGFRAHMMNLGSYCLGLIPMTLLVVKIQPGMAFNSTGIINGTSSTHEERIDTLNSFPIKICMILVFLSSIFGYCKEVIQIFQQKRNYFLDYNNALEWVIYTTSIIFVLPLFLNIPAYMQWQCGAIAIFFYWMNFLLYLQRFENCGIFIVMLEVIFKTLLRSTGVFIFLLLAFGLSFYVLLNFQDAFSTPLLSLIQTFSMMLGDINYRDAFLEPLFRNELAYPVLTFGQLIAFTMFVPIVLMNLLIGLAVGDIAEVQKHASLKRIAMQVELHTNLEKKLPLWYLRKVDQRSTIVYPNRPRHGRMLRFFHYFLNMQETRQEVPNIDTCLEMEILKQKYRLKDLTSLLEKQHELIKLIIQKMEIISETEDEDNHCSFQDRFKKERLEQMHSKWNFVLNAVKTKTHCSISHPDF
UniProt O75762, whole entry, looked up: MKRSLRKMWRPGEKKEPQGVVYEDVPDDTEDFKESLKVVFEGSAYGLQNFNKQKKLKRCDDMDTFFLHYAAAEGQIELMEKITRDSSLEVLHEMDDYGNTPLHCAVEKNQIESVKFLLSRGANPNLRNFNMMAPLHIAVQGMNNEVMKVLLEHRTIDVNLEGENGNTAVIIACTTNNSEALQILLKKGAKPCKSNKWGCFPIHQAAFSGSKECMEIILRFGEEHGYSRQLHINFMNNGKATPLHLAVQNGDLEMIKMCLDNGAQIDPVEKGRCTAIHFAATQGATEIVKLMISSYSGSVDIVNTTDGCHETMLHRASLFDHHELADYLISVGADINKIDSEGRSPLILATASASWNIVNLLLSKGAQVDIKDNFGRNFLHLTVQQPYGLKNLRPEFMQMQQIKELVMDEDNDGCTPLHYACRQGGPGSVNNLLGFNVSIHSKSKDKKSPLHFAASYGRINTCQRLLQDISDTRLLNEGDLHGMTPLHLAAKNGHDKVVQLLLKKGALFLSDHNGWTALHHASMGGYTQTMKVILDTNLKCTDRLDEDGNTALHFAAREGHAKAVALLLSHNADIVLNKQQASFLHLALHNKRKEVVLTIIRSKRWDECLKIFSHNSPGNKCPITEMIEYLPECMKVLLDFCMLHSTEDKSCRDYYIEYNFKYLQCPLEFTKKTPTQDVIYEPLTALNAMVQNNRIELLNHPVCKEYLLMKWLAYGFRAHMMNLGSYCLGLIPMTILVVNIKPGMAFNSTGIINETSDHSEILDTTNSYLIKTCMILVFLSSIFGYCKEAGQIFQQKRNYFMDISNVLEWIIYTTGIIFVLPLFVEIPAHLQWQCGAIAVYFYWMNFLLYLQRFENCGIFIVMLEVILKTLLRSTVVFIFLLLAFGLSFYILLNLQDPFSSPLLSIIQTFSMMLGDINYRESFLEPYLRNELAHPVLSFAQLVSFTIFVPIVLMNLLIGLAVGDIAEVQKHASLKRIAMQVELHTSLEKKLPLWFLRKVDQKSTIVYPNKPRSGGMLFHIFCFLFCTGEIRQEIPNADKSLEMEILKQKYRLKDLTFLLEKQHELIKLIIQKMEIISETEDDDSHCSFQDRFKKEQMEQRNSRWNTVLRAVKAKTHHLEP
UniProt O35433, whole entry, looked up: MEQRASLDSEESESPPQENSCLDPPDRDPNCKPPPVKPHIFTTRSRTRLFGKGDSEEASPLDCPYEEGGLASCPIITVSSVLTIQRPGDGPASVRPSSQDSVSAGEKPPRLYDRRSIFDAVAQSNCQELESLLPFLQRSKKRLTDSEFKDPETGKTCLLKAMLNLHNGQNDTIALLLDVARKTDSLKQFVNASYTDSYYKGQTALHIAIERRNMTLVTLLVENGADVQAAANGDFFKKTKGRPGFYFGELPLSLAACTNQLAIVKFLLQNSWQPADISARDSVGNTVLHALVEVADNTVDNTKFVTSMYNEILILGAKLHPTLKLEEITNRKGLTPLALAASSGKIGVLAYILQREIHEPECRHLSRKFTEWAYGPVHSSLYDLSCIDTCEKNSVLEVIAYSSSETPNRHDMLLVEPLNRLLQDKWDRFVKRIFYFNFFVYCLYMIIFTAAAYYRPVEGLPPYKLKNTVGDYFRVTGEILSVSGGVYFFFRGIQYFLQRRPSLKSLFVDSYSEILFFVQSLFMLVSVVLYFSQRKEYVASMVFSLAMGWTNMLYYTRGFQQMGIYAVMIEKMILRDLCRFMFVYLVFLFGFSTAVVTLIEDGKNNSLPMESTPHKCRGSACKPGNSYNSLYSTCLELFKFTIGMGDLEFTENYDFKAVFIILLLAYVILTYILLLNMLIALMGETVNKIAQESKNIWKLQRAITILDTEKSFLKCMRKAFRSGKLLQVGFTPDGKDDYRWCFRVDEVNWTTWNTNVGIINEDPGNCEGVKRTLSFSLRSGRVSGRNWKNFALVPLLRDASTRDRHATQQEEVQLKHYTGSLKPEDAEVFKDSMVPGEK

Series [1] relates to isolated guinea pig bronchi. The following applies: reference 21; cited from earlier work.
Series [2] relates to mouse DRG neurons. Briefly: Whole-cell patch-clamp of mouse DRG neurons (CN-induced TRPA1-like currents). To be noted: 100 μM CN; ruthenium red 10 μM.
Series [3] has as its system TRPA1. The following applies: cultured sensory neurons and heterologous cells.
The next series addresses native TRPA1 (Mus musculus, UniProt Q8BLA8). Nature of the series: Antagonist inhibition of isocyanate or tear gas agent-activated Ca2+-influx into mouse DRG neurons. To be noted: for CS-induced neuronal Ca2+-influx: 10 μM CS, antagonist 25 μM; for IC50: mouse DRG neurons, % of 5 μM capsaicin.
For series [4], the target named is T1, TRPA1 (Homo sapiens, UniProt O75762). To be noted: cited from earlier work; for activation of TRPA1 by mustard oil and other reactive chemical stimuli in vitro: references 35, 60.
In series [5] the test system is C57/B16 wild-type mice. Nature of the series: Nocifensive responses after application of toxicant to the mouse eye.
The target in series [6] is TRPA1 (Mus musculus, UniProt Q8BLA8). Briefly: Block of noxious effects of toxicants in vivo (summary).
Series [7] concerns C57/B16 wild-type mice. Nature of the series: Nocifensive responses after intraplantar injection of toxicant into the mouse hind paw. The following applies: HC-030031 100 mg/kg i.p., about one hour before; intraplantar HDI 6 mM or CN 4 mM.
For series [8], the system named is mouse DRG neurons. To be noted: for Ca2+-influx into a subset of DRG neurons: 100 μM each (CR 300 μM); for EC50: [Ca2+]i as % of maximal [Ca2+]i by 100 μM mustard oil.
Series [9] relates to mouse trigeminal ganglia neurons. Briefly: Fura-2 Ca2+ imaging of mouse trigeminal ganglia neurons. The following applies: 100 μM.
Series [10] addresses T1, TRPA1. The following applies: -40 mV.
For series [11], the system named is hTRPA1 mutant C619, C639, C663. Briefly: Ca2+ imaging of hTRPA1 mutant 3C (C619, C639, C663) in HEK-293t cells. To be noted: 100 μM each (CR 300 μM); % of [Ca2+]i by 300 μM carvacrol.
Series [12] concerns the target T1, TRPA1. Nature of the series: Fura-2 Ca2+ imaging: toxicant-activated Ca2+-influx into hTRPA1-transfected HEK293t cells. The following applies: for activation of TRPA1 expressed in HEK293t cells: fluorescent Ca2+ imaging; for potency on TRPA1 relative to mustard oil: hTRPA1 HEK293t cells; for EC50: read-out: EC50 of Ca2+-influx into hTRPA1-transfected HEK293t cells, [Ca2+]i as % of maximal [Ca2+]i by 100 μM mustard oil.

In the next series the test system is hTRPA1 mutant K708. Briefly: Ca2+ imaging of hTRPA1 mutant K (K708) in HEK-293t cells. The following applies: 100 μM each (CR 300 μM); % of [Ca2+]i by 300 μM carvacrol.
Another series has as its system TRPA1-deficient neurons. Briefly: Fura-2 Ca2+ imaging of DRG neurons from Trpa1-/- mice. The following applies: capsaicin response normal.
In series [13] the test system is hTRPA1 mutant C619, C639, C663, K708. Briefly: Ca2+ imaging of hTRPA1 mutant 3CK (C619, C639, C663, K708) in HEK-293t cells. The following applies: 100 μM each (CR 300 μM); % of [Ca2+]i by 300 μM carvacrol.
For a further series, the system named is Trpa1-/- mice. Briefly: Eye nocifensive responses of Trpa1-/- versus wild-type mice. To be noted: 100 mM CN or CS, 200 mM HDI.
The target in a further series is rTRPV1 (Rattus norvegicus, UniProt O35433). Briefly: Fura-2 Ca2+ imaging of rTRPV1-transfected HEK293t cells. The following applies: 100 μM each (CR 300 μM); % of 5 μM capsaicin.
The mark [14] stands for this setting: read-out: EC50 of Ca2+-influx into AIC-sensitive mouse DRG neurons.

Like-named read-outs stand apart in the source and are kept apart here.

Turning to ammoniated ruthenium oxychloride, in [1], the “isocyanate-induced contraction of isolated guinea pig bronchi” value is reported as “inhibits”. Moreover, in the series on mouse DRG neurons [2], the “block of CN-induced membrane currents” value is “efficiently blocked”. Moreover, in the series with TRPA1 [3], the “block of activation of TRPA1 by various toxicants” value (“block of activation of TRPA1” for short) is “block activation of TRPA1”.

Consider `CC(=C\c1ccc(Cl)cc1)/C(C)=N/O`, for which the “CS-induced neuronal Ca2+-influx” value on native TRPA1 is recorded as “blocked”. In addition, at TRPA1 [4], the “activation of TRPA1 by mustard oil and other reactive chemical stimuli in vitro” value is on record as “blocked”. Besides, the “block of activation of TRPA1” value in the series with TRPA1 [3] was “block activation of TRPA1”.

On to `CC(C)c1ccc(NC(=O)Cn2cnc3c2c(=O)n(C)c(=O)n3C)cc1`, for which the “CS-induced neuronal Ca2+-influx” value on native TRPA1 is listed as “blocked”. At native TRPA1 (HC-030031 100 μM, incubated 5-30 min), the “CS, CN or HDI (10 μM)-induced Ca2+ influx into DRG neurons” value was “absent”. For the same compound, the IC50 at native TRPA1 (read-out: IC50 of inhibition of [Ca2+]i induced by 10 μM CN) is 0.884 µM; at native TRPA1 (read-out: IC50 of inhibition of [Ca2+]i induced by 10 μM CS) it was 4.5 µM; on native TRPA1 (read-out: IC50 of inhibition of [Ca2+]i induced by 10 μM HDI), 74 µM. In the series with C57/B16 wild-type mice [5] (HC-030031 300 or 50 mg/kg i.p., one hour before, 100 mM toxicant), the “frequency of nocifensive responses to HDI, CN, CS applied to the eye” value was “dramatically reduced”. The “activation of TRPA1 by mustard oil and other reactive chemical stimuli in vitro” value at TRPA1 [4] is reported as “blocked”. Also, the “noxious effects of CN, CS, ammonia, bromoacetone and isocyanates in vivo” value at TRPA1 [6] is “blocked the noxious effects”. Besides, the “block of activation of TRPA1” value in the series with TRPA1 [3] was “block activation of TRPA1”. The “nocifensive behavior (flinching, lifting, licking of the paw)” value in the series on C57/B16 wild-type mice [7] is on record as “greatly reduced”.

Consider `CN=C=S`, for which the “agonism of TRPA1 in vitro in comparison to mustard oil” value at TRPA1 [4] (reference 29) is given as “only a weak agonist”.

In the case of “1-O-octadecyl-2-O-methyl-sn-glycero-3-phosphoryl-choline”, the “effect of PLC-inhibitor on toxicant-activated neuronal Ca2+-influx” value in the series on mouse DRG neurons [8] (ET-18-OCH3 4 μM, MIC, HDI, CN, CS, CR) was “did not diminish”.

Consider `O=C=NCCCCCCN=C=O`, for which the “Ca2+-influx into TG neurons” value in series [9] is “rapid increase in [Ca^2+]i”. Besides, the single channel conductance stood at 127±4 pS at TRPA1 [10] (cell-attached, HDI-activated, absence of Ca2+) and 51±2 pS at TRPA1 [10] (cell-attached, HDI-activated, presence of 2 mM Ca2+). Besides, the “nocifensive responses upon application to the mouse eye” value in the series with C57/B16 wild-type mice [5] (100 mM each, untreated mice) is “immediate nocifensive responses”. Also, the “response of mutant 3C” value in series [11] is reported as “did not greatly affect the efficacy”. Moreover, the “activation of TRPA1 expressed in HEK293t cells” value at TRPA1 [12] was “strongly activated”. The “potency on TRPA1 relative to mustard oil” value on TRPA1 [12] is reported as “comparable to the chemically similar mustard oil”. Moreover, the results for the EC50 at TRPA1 [12] and with mouse DRG neurons [8] (setting [14]) were 2.6 µM and 8.4 µM, respectively. The “response of lysine mutant (K)” value in the series with hTRPA1 mutant K708 is on record as “activated”. Moreover, the “increase in [Ca2+]i in TRPA1-deficient neurons” value in the series on TRPA1-deficient neurons is given as “failed to respond”. Besides, in series [13], the “response of mutant 3CK” value was “significant activity”. Besides, the “nocifensive responses in Trpa1-/- mice after eye application” value in the series on Trpa1-/- mice was “significantly abated”. Also, the “Ca2+-influx into a subset of DRG neurons” value with mouse DRG neurons [8] is “rapid increase in [Ca^2+]i”.

On to `CN=C=O`, for which the “Ca2+-influx into TG neurons” value in series [9] was “rapid increase in [Ca^2+]i”. Besides, at TRPA1 [10] (inside-out patch, no Ca2+, 100 μM MIC or 10 μM CS, 3 patches/agent), the single channel conductance is reported as 124±3 pS. The “response of mutant 3C” value in series [11] is “significantly reduced responses”. Also, at TRPA1 [12], the “activation of TRPA1 expressed in HEK293t cells” value is “strongly activated”, the “potency on TRPA1 relative to mustard oil” value was “comparable to the chemically similar mustard oil” and the EC50 stood at 25 µM. In addition, the “response of lysine mutant (K)” value in the series with hTRPA1 mutant K708 is on record as “activated”. In the series with TRPA1-deficient neurons, the “increase in [Ca2+]i in TRPA1-deficient neurons” value is on record as “failed to respond”. Further, the “activation of rTRPV1 (Ca2+-influx)” value on rTRPV1 is “not activated”. For the same compound, the “response of mutant 3CK” value in series [13] is listed as “dramatically reduced or eliminated”. Further, in the series on mouse DRG neurons [8], the “Ca2+-influx into a subset of DRG neurons” value was “rapid increase in [Ca^2+]i”. Also, the EC50 in the series on mouse DRG neurons [8] (read-out: EC50 of Ca2+-influx into AIC-sensitive mouse DRG neurons (unit inferred)) came out at 36 µM. In the series with mouse DRG neurons [8] (setting [14]), the EC50 came to 36 µM.

For orientation: IC50 means the concentration needed to halve the response being measured. The term EC50 denotes the concentration that produces a half-maximal response.
